ALR inh – blocks human ALR sulfhydryl oxidase activity; P55789; purified ALR, DTT oxidation, H2O2 HRP-luminol luminescence; inhibition, % (test concentration not listed); 3.8% of 290,000 active; AID 485317;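 active = mean and each replicate at 75% or more; inconclusive = only one of the two met; inactive = neither met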;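 also: stock transfer was 7.5 nL into about 7.5 µL; 0% = neutral wells and 100% = wells with inactivated enzyme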
MC4R antagonist – antagonists of human melanocortin 4 receptor (MC4R); inhibition, % at 6.5 µM; P32245; AID 540295; MC4R-expressing cells, MTII-stimulated cAMP, LANCE TR-FRET; actives 0.48% (n = 360,000);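 active means inhibition above its plate's cutoff, the mean of tested wells on that plate plus 3 SD, cut at about 29% in these data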
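material = U2OS cells stably expressing human melanocortin 4 receptor (MC4R) | also added = Melanotan II challenge | dosing = single nominal compound dose of 6.5 µM | detection = TR-FRET with Eu-cAMP and labeled anti-cAMP, 671 nm | replication = singlicate | timing = compound 30 min, challenge 1 h, detection 1 h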
Yeast UUG start – modulators of yeast start codon fidelity, primary screen, whole organism, S. cerevisiae, single point, plate reader. S. cerevisiae UUG-firefly luciferase reporter, luminescence/redox ratio. activity score, % at 18.7 µM. hit rate 0.13% among 350,000;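 active = replicate mean at a twofold rise or more, about +100% in these data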;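 also: firefly luciferase made from a UUG start codon reports start codon fidelity; reporter light over untreated wells divided by growth signal over untreated wells; some hits fall short of that in this replicate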
NALP1 yeast inh – blocks the NALP1 inflammasome reconstituted in yeast; actives 0.61% (n = 280,000); inhibition, % at 10 µM; S. cerevisiae NALP1/ASC/caspase-1 growth, X-gal OD620, 72 h; in the data active means inhibition mostly above about 24%, no sharp cut-off; inactive means mostly below about 32%
HDAC3 inhib – inhibitors of human histone deacetylase 3; inhibition, % at 8.3 µM; O15379; AID 2718; recombinant HDAC3, fluorogenic peptide/trypsin coupled, fluorescence; actives 0.15% (n = 320,000); in the data active means inhibition above about 26%, passing the limit was not always enough; inconclusive means no clear call, values can overlap the other calls
MC4R barr agon – activates human MC4R beta-arrestin recruitment; activation, % at 8.9 µM; actives 0.98% (n = 360,000); P32245; U2OS MC4R beta-arrestin complementation, luminescence; percent of melanotan II response, DMSO zero;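 active means activation above a per-plate cutoff, the mean activation of sample wells on that plate plus 3 SD, cut at about 8% in these data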
Numbers stand for hits; i = inactive; ? = inconclusive; nt = not tested or not shown. This is a sample that favours compounds with a hit; in the whole collection about 4.2% have one here.

SMILES | ALR inh | MC4R antagonist | Yeast UUG start | NALP1 yeast inh | HDAC3 inhib | MC4R barr agon
C[C@@H]1CN([C@H](C)CO)S(=O)(=O)c2ccc(-c3ccccc3)cc2O[C@H]1CN(C)C(=O)c1ccccc1F | nt | nt | i | nt | nt | nt
Cc1nc2sc(C(=O)Nc3ccccc3)c(N)c2c(C)c1[N+](=O)[O-] | i | i | nt | i | i | 9.3
CC(=O)c1ccc(NC(=O)c2sc3nc(C)c(C)c(C)c3c2N)cc1 | i | i | i | i | i | i
CN(C)c1ccc(C(CC(=O)c2ccccc2)C2CCCCC2=O)cc1 (stereo not given) | 98.1 | i | nt | i | i | i
OCCCCNCc1ccc(OCc2ccccc2Cl)cc1 | i | i | i | i | i | i
Clc1cc(Br)ccc1OCCCNCc1ccccc1 | i | i | i | i | i | 8.8
CC(C)(C)c1ccc(OCCCNCc2ccccc2)cc1 | nt | i | nt | i | i | i
CCOCCCNCc1ccc(OCc2ccccc2Cl)cc1 | i | i | nt | 51.9 | i | i
CCc1cc(OCCCCNCc2ccccc2)ccc1Cl | i | i | i | 63.0 | i | i
Cc1ccccc1N1C(=O)CC(c2c[nH]c3ccccc23)C1=O (stereo not given) | i | i | nt | 23.1 | nt | i
Cc1ccccc1N1CCN(Cc2c[nH]c3ccccc23)CC1 | i | i | i | i | i | i
Cc1nn(-c2nnc(C)c(=O)[nH]2)c(C)c1SCC(=O)Nc1ccc(F)cc1 | 98.9 | i | i | i | i | i
Cc1nn(-c2nnc(C)c(=O)[nH]2)c(C)c1SCC(=O)Nc1ccc(C(C)C)cc1 | 97.6 | i | nt | i | i | i
CNC[C@H]1Oc2c(NC(=O)Nc3ccc4c(c3)OCO4)cccc2C(=O)N([C@H](C)CO)C[C@H]1C | nt | nt | i | nt | nt | nt
CNC[C@H]1Oc2ccc(NC(=O)C3CCCCC3)cc2C(=O)N([C@@H](C)CO)C[C@H]1C | nt | nt | i | nt | nt | nt
Cc1oc(-c2ccccc2Cl)nc1CS(=O)CC(=O)NCc1ccccc1Cl (stereo not given) | 98.8 | i | i | i | i | i
Cc1oc(-c2ccccc2Cl)nc1CS(=O)CC(=O)NCc1ccco1 (stereo not given) | 98.1 | i | i | i | i | i
O=C(CCc1nc(-c2ccccc2Cl)no1)NCc1ccco1 | nt | i | i | i | i | i
Cc1oc(-c2ccc(Cl)cc2)nc1CS(=O)CC(=O)NCc1ccco1 (stereo not given) | 98.6 | i | i | i | i | i
COc1ccc(NC(=O)N2CC[C@@H]3[C@@H](CO)N(C)c4ccc(-c5ccccc5F)cc4[C@@H]32)cc1 | nt | nt | i | nt | nt | nt
COc1ccccc1OCCN1CSC(=S)N(C)C1 | nt | i | nt | 108.2 | nt | i
C[C@H](CO)N1C[C@H](C)[C@@H](CN(C)Cc2ccc(C(=O)O)cc2)OCCCC[C@H](C)Oc2ccc(NC(=O)C3CCCCC3)cc2C1=O | nt | nt | i | nt | nt | nt
COC(=O)c1ccc(C2C(Oc3ccccc3)C(=O)N2CCc2ccc(OC)c(OC)c2)cc1 (stereo not given) | i | i | i | i | i | 8.9
COc1ccc(OC2C(=O)N(CCc3ccc(OC)c(OC)c3)C2c2ccc3c(c2)OCO3)cc1 (stereo not given) | i | i | i | i | i | i
CC(C)c1cn(CC[C@@H]2CC[C@@H](NC(=O)C3CCCCC3)[C@H](CO)O2)nn1 | nt | nt | i | nt | nt | nt
SMILES | ALR inh | MC4R antagonist | Yeast UUG start | NALP1 yeast inh | HDAC3 inhib | MC4R barr agon
Cc1sc2nc(CSCC(=O)Nc3ccc(OC(F)F)cc3)[nH]c(=O)c2c1C | 97.2 | i | nt | i | i | i
Cc1sc2nc(CSCC(=O)Nc3ccc(C(=O)N(C)C)cc3)[nH]c(=O)c2c1C | 98.8 | i | i | nt | i | i
CO[C@H]1CN(C)C(=O)c2ccc(NS(=O)(=O)c3ccccc3)cc2OC[C@@H](C)N(C(=O)NC(C)C)C[C@H]1C | nt | nt | i | nt | nt | nt
CN1CCN(C(=O)C2=C[C@H](C3CC3)C[C@H](OCCCCO)O2)CC1 | nt | nt | i | nt | nt | nt
O=C(O)C1C2C=CC(C2)C1C(=O)NCc1ccc(Cl)c(Cl)c1 (stereo not given) | i | i | nt | 46.6 | i | i
O=C(O)C1C2C=CC(C2)C1C(=O)NCc1ccc2c(c1)OCO2 (stereo not given) | i | i | i | i | i | i
O=C(CSc1nc(=O)n(CCN2CCOCC2)c2c1CCC2)Nc1ccc(OC(F)(F)F)cc1 | 96.9 | i | nt | nt | i | i
CCN(CC)CCCn1c2c(c(SCC(=O)Nc3cc(OC)cc(OC)c3)nc1=O)CCC2 | i | i | i | nt | i | i
COc1cc(NC(=O)CSc2nc(=O)n(CCCN3CCOCC3)c3c2CCC3)cc(OC)c1 | 99.3 | i | i | nt | i | i
CCOc1ccc(NC(=O)CSc2nc(=O)n(CCN3CCOCC3)c3c2CCCC3)cc1 | i | i | i | nt | i | i
COc1cc(NC(=O)CSc2nc(=O)n(CCN3CCOCC3)c3c2CCC3)cc(OC)c1 | 96.9 | i | i | nt | i | i
CC(=O)c1cccc(NC(=O)CSc2nc(=O)n(CCN3CCOCC3)c3c2CCC3)c1 | i | i | i | nt | i | i
CC(=O)Nc1cccc(NC(=O)CSc2nc(=O)n(CCN3CCOCC3)c3c2CCCC3)c1 | 98.8 | i | i | nt | ? | i
CN1C(=O)c2cc(NC(=O)c3ccc(F)cc3)ccc2OC[C@H]2O[C@H](CC(=O)NCC3CCCCC3)CC[C@@H]21 | nt | nt | i | nt | nt | nt
C[C@H](CO)N1C[C@H](C)[C@@H](CN(C)C(=O)Cc2ccccc2)OCCCC[C@H](C)Oc2ccc(NC(=O)C3CCCCC3)cc2C1=O | nt | nt | i | nt | nt | nt
COc1ccc(NC(=O)CSc2nc(=O)n(CCN3CCOCC3)c3c2CCC3)cc1 | 98.5 | i | i | nt | i | i
O=C(CSc1nc(=O)n(CCCN2CCOCC2)c2c1CCCC2)Nc1cccc(F)c1 | ? | i | i | nt | i | i
Cc1cc(C)cc(NC(=O)CSc2nc(=O)n(CCCN3CCOCC3)c3c2CCCC3)c1 | 95.8 | i | i | nt | i | i
COC(=O)c1ccc(NC(=O)CSC2=Nc3ccccc3C3CC=NN23)cc1 (stereo not given) | 97.0 | i | i | i | i | i
NC(=O)c1ccc(NC(=O)CSC2=Nc3ccccc3C3CC=NN23)cc1 (stereo not given) | 98.6 | i | i | i | i | i
O=S(=O)(c1ccc(F)cc1)N1CCCCN2[C@@H](CO)[C@H](c3ccc(-c4ccccc4F)cc3)[C@@H]2C1 | nt | nt | i | nt | nt | nt
C[C@@H]1CCCCO[C@@H](CN(C)Cc2ccccc2)[C@@H](C)CN([C@H](C)CO)C(=O)c2cc(NC(=O)Nc3ccc(C(F)(F)F)cc3)ccc2O1 | nt | nt | i | nt | nt | nt
C(=N\Nc1nncc2ccccc12)/c1ccccc1 | i | i | nt | i | i | i
Cc1cccc(/C=N/Nc2nncc3ccccc23)c1 | 96.5 | i | i | i | i | i
CS/C(=N\S(=O)(=O)c1cccs1)NC(=O)CSc1nc2ccccc2s1 | 98.3 | i | i | i | i | i
CCc1ccccc1Nc1nc(N)nc(CSc2nnnn2C)n1 | i | i | nt | i | i | i
CCc1ccccc1Nc1nc(N)nc(CSCC(=O)c2cc(C)n(C)c2C)n1 | 97.7 | i | i | i | i | i

Screening results (PubChem BioAssay)
